Measured values: ChEMBL document CHEMBL6134838, “Discovery of c-Kit as a New Therapeutic Target in LPS-Induced Acute Lung Injury through Novel Phenylamide Derivative D9” (J Med Chem, 2025)

Assays:
in vivo [1] = settings: Sprague-Dawley, rat, iv, 1 mg/kg
J774.A1 = test: cells; settings: Mus musculus, J774.A1, 24 h
Mus musculus = organism: Mus musculus; test: animal or person; settings: C57BL/6, po, 169 h
in vivo [2] = settings: Sprague-Dawley, rat, po, 2 mg/kg
[3] = Cytotoxicity against mouse J774.A1 cells assessed as survival rate at 10 uM measured for 48 hrs by MTT assay relative to control
in vivo [4] = settings: Sprague-Dawley, rat, iv, 1 mg/kg; remark: listed apart in the source
in vivo [5] = settings: Sprague-Dawley, rat, po, 2 mg/kg; remark: listed apart in the source
in vivo [6] = settings: Sprague-Dawley, rat, po, 2 mg/kg; remark: listed apart in the source

O=C(NCCc1cccs1)c1cc(Oc2ccc(NC(=O)c3cn(-c4ccc(F)cc4)c4ccccc4c3=O)cc2)ccn1
half-life at 24 h (in vivo [1]): 1.92 h | IC50 (J774.A1): 3000 nM | survival at 20 mg/kg (Mus musculus): 75% | AUC at 24 h (in vivo [2]): 2180 ng·h/mL | viability at 48 h, 10 µM [3]: > 100% | AUC at 24 h (in vivo [4]): 13000 ng·h/mL | bioavailability at 24 h (in vivo [5]): 8.4% | half-life at 24 h (in vivo [6]): 3.61 h
